Protein sequences, listed by entry. Tags and fused reporters are not part of them.
UniProt Q99705, whole entry: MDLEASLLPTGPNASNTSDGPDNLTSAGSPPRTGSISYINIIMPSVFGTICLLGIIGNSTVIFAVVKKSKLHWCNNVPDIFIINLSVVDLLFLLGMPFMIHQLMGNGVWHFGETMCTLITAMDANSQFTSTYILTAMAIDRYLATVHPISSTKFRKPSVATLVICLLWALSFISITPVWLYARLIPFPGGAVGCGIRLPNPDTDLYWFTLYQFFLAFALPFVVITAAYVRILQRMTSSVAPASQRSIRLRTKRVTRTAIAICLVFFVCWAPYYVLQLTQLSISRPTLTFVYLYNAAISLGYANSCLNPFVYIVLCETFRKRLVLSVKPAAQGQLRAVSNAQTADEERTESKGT

According to US6664273B2, “Piperidine based MCH antagonists for treatment of obesity and CNS disorders” (Schering Corporation, priority 2001, dated 2003):

Biological target: MCH receptor (Homo sapiens, UniProt Q99705)
Test: MCH Receptor Binding Assay
Conditions: read-out: Avg. MCH Ki; [125I]-MCH, SPA, membranes from CHO cells expressing the MCH receptor
Method: Membranes from CHO cells expressing the MCH receptor were prepared by lysing cells with 5 mM HEPES for 15 min at 4C. Cell lysates were centrifuged ([…], 15 min) and the pellet was re-suspended in 5 mM HEPES. For each 96-well plate (Microlite, Dynex Technologies), 1 mg of cell membranes were incubated with 10 mg of wheat germ agglutinin SPA beads (Amersham) for 5 min at 4 C in a volume of 10 ml of binding buffer (25 mM HEPES, 10 mM MGCl2, 10 mM NaCl, 5 mM MnCl2, 0.1% BSA). The membrane/bead mixture was centrifuged (1500×g, 3.5 min), the supernatant was aspirated, and the pellet was re-suspended in 10 ml binding buffer. The centrifugation, aspiration and re-suspension were then repeated. The membrane/bead mixture (100 μl) was then added to 96-well plates containing 50 μl of 500 pM [^125I]-MCH (NEN) and […] of the appropriate concentration of compound (4× the desired final concentration). Nonspecific binding was determined by including 1 μM MCH in the binding reaction. The binding reaction was incubated at room temperature for 2 h. Plates were then analyzed in a TOPCOUNT microplate scintillation counter (Packard). Data was analyzed and Ki values were determined using GraphPad Prism.

`CC1CCC(N2CCC(OCC(=O)Nc3cc(Cl)cc(Cl)c3)(c3ccc(-c4cccc(C#N)c4)cc3)CC2)CC1` (stereo not shown) showed a Ki of 13 nM.
